Sequences of proteins named here, by UniProt entry; tags and fusion partners are left off. Residues count along the entry.
UniProt P10827, 1-410 isoform 2: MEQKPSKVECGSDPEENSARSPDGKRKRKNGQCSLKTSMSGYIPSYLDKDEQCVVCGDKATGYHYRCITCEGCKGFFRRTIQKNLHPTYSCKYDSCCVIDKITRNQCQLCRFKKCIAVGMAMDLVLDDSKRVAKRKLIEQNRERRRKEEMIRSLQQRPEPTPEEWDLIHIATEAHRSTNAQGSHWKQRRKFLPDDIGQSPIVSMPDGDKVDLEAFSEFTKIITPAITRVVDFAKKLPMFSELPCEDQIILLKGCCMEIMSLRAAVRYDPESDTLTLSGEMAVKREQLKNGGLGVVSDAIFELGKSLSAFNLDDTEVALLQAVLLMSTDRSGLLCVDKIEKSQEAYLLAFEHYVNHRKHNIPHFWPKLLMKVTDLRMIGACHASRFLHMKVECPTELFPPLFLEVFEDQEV
UniProt P10827, 163-410 isoform 2 limits assumed: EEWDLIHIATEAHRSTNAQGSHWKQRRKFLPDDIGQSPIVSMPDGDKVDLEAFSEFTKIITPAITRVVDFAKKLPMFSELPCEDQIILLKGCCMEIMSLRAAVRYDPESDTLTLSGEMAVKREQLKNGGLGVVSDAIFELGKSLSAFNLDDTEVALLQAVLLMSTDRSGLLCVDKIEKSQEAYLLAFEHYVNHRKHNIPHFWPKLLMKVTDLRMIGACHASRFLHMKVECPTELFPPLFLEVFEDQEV
UniProt P10828, whole entry: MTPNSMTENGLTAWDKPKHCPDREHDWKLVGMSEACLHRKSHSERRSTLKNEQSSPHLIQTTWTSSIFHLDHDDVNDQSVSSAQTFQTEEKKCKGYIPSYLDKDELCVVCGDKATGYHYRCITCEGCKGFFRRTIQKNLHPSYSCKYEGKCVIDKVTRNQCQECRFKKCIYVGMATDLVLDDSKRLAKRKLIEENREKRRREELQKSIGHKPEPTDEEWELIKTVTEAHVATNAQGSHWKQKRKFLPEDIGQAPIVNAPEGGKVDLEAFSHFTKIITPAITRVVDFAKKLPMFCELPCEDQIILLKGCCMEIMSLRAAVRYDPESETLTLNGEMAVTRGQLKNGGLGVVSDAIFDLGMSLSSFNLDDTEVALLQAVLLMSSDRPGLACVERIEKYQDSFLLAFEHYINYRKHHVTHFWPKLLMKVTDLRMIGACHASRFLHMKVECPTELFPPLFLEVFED
UniProt P10828, 217-461 limits assumed: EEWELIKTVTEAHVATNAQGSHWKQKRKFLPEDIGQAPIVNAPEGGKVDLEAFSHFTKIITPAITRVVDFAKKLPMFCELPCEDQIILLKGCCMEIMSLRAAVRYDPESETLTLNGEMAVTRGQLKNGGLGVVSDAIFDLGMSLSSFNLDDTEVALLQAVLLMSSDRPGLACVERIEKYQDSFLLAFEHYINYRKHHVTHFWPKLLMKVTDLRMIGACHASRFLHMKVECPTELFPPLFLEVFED
UniProt P19793, whole entry partner: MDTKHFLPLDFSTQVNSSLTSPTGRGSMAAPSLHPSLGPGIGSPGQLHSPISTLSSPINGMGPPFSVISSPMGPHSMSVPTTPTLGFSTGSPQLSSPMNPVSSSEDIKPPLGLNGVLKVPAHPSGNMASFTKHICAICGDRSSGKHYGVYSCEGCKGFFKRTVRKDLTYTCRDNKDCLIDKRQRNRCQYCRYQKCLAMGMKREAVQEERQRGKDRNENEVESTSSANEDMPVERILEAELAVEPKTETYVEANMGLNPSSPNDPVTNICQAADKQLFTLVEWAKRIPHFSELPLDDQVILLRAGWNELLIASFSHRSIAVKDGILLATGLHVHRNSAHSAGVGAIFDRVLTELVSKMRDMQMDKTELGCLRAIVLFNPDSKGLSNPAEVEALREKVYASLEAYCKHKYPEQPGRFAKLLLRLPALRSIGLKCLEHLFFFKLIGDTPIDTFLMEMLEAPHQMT

According to patent US12630537B2, “Pyridazinone and methods of use thereof” (ALIGOS THERAPEUTICS, INC., priority 2020, dated 2026):

What was measured:
[1] = target: human thyroid receptor alpha ligand-binding domain (THR-α) (Homo sapiens, UniProt P10827); test: TR-FRET thyroid receptor coactivator assay (THR biochemical assay), alpha; conditions: read-out: EC50 THR-α (Biochemical Activity), SRC2-2 coactivator peptide
THR beta = THR beta (Homo sapiens, UniProt P10828); test: HEK293T THRbeta/RXR luciferase reporter assay
[2] = Hepatocyte stability assay, human; conditions: 1 μM, time point not given
Experimental: (§1) Cryopreserved hepatocytes were taken from the liquid nitrogen tank and thawed quickly in a 37° C. water bath. As soon as the cells pulled away from the vial wall, they were decanted into 48 mL of warm thawing (HT) medium. Cells were centrifuged for 5 minutes at 420 RPM (50 g). After removing the supernatant, the pellets were re-suspended in 4 mL of warm Dulbecco's Modified Eagle Medium (DMEM). Cell density was counted by a hemocytometer.
(§2) The assay was carried out in 96-well microtiter plates. The study compound was incubated at 1 μM with 0.5 million cells/mL hepatocytes in DMEM for 0, 60, 120, and 180 minutes at 37° C. The volume of the incubation mixture was 37 μL with a final DMSO content of 0.1%. At each time point, the incubation was stopped by the addition of 150 μL quenching solution (100% acetonitrile, 0.1% formic acid containing the internal standard bucetin at 15 nM). Subsequently, the mixtures were vortexed for 20 minutes and centrifuged at 4,000 RPM at 10° C. An aliquot of 80 μL of the supernatant was transferred to a clean 96-well plate and analyzed by LC/MS/MS. Midazolam at 1 μM with a final DMSO content of 0.1% was included as a positive control to verify the assay performance.

[3] = target: human thyroid receptor beta ligand-binding domain (THR-β) (Homo sapiens, UniProt P10828); test: TR-FRET thyroid receptor beta coactivator assay (THR biochemical assay)
[4] = Hepatocyte stability assay, mouse; conditions: 1 μM, time point not given
Experimental: as §1, §2

[5] = Microsomal stability assay, rat; conditions: 1 μM, time point not given
Experimental: (§3) The assay was carried out in 96-well microtiter plates. Test compounds, at a final concentration of 1 μM was incubated at 37° C. with 0.5 mg/mL liver microsomes, and +/−1 mM NADPH in 100 mM potassium phosphate, pH 7.4 buffer with 3.3 mM MgCl2. […] At each of the time points (0, 15, 30 and 60 min), incubation was stopped by adding 150 μL of the quenching solutions (100% acetonitrile, 0.1% formic acid) and subsequently the mixtures were vortexed vigorously for 20 min and centrifuged at 4,000 RPM at 4° C. The supernatants (80 μL) were transferred to a clean 96-well plate and analyzed by LC/MS/MS. Verapamil at 1 μM with a final 0.1% DMSO was included as a positive control to verify assay performance.

[6] = Hepatocyte stability assay, rat; conditions: 1 μM, time point not given
Experimental: as §1, §2

[7] = Microsomal stability assay, mouse; conditions: 1 μM, time point not given
Experimental: as §3

[8] = Microsomal stability assay, human; conditions: 1 μM, time point not given
Experimental: as §3

THR alpha = THR alpha (Homo sapiens, UniProt P10827); test: HEK293T THRalpha/RXR luciferase reporter assay; conditions: read-out: EC50 THR-α (HEK 293 Activity); HEK293T TRE-luciferase reporter, 18-24 h

EC50 [1]: 0.399 µM | THR-β Selectivity (HEK 293 Activity) (THR beta; THR-β over THR-α, HEK293T reporter): 6.5 | EC50 (THR beta; read-out: EC50 THR-β (HEK 293 Activity), HEK293T TRE-luciferase reporter, 18-24 h): 0.11 µM | Hepatocytes % Remaining [2]: (86) % | THR-β Selectivity (Biochemical Activity) ([3]; THR-β over THR-α, TR-FRET assay): 6 | EC50 ([3]; read-out: EC50 THR-β (Biochemical Activity), TR-FRET, SRC2-2 coactivator peptide): 0.063 µM | Hepatocytes % Remaining [4]: (101) % | Liver Microsomes % Remaining [5]: (91) % | Hepatocytes % Remaining [6]: (106) % | Liver Microsomes % Remaining [7]: (92) % | Liver Microsomes % Remaining [8]: (93) % | EC50 (THR alpha): 0.715 µM
SMILES: CC(c1cc(Oc2c(Cl)cc(-n3nc(N)c(=O)[nH]c3=O)cc2Cl)n[nH]c1=O)C1CC1 (single isomer, unassigned) [Compound 1a]
